Measurements published in article PMC4535769, “The Carboxy Terminus of the Ligand Peptide Determines the Stability of the MHC Class I Molecule H-2K^b: A Combined Molecular Dynamics and Experimental Study” (PLoS ONE, 2015).

The chains behind the UniProt entries cited, without tags or fusion partners. Residues count along the entry.
UniProt P01901, 22-305 limits assumed: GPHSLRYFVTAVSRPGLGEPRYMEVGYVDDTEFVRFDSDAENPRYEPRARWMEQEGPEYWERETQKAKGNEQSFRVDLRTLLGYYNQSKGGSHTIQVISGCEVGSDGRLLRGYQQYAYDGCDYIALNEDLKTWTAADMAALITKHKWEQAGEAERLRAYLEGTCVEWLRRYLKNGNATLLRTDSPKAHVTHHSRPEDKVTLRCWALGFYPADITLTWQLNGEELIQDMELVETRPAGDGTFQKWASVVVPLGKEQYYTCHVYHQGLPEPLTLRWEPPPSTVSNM

Target: T1, K^b/β2m (Mus musculus, UniProt P01901)
T1 construct: The TDTF analysis was performed on the luminal domain of K^b, which was produced in E.coli; made in house
Test: Competitive binding against SIINFEKTAMRAL measured by fluorescence anisotropy (IC50)
Design: species or system murine
Method: Steady state measurements were performed with peptide-free folding reactions of K^b/β2m.
K^b was folded empty and then incubated with different concentrations of each peptide variant for five minutes. Then, the index peptide SIINFEKTAMRAL (fluorescently labeled on the lysine side chain) was added as a competitor, and the endpoint of its binding was measured by fluorescence anisotropy. From theory curves fitted to the data, we calculated the half-maximal concentration of inhibition of SIINFEKTAMRAL binding (IC50) for each modified peptide (Fig 6, S1F Fig).
Fig 6 Half-maximal concentration of peptide (IC50) required to inhibit the binding of the high affinity peptide SIINFEKTAMRAL. K^b/β2m complexes derived from the […] (B) structures were folded empty and then incubated for 5 minutes with different concentrations of full-length, truncated, or modified peptides. […] Binding curves (left) are of one representative experiment, and the IC50 values (right) are the average of three experiments.

`C[C@H](NC(=O)[C@H](C)NC(=O)[C@@H]1CCCN1C(=O)[C@H](Cc1ccc(O)cc1)NC(=O)[C@H](CC(N)=O)NC(=O)CNC(=O)[C@@H]1CCCN1C(=O)[C@H](C)NC(=O)[C@@H](N)Cc1ccccc1)C(=O)O` was tested, and the pIC50 was 6.66.

pIC50: −log10 of the molar value.
